Experimental data from patent US11547761B1, “Antibody adjuvant conjugates” (The Board of Trustees of the Leland Stanford Junior …, priority 2016, dated 2023).

Assays:
[1] = test system: human APCs (myeloid cells); experiment: APC-tumor co-culture / myeloid cell stimulation, surface markers by flow cytometry; format: cell-based; conditions: 18 hours of stimulation; compared with the corresponding unconjugated antibody unless the value names another comparator
From the text: (§1) Human antigen presenting cells (APCs) were negatively selected from human peripheral blood mononuclear cells obtained from healthy blood donors (Stanford Blood Center) by density gradient centrifugation using a RosetteSep Human Monocyte Enrichment Cocktail (Stem Cell Technologies) containing monoclonal antibodies against CD2, CD3, CD8, CD19, CD56, CD66b and CD235a. Immature APCs were subsequently purified to >97% purity via negative selection using an EasySep Human Monocyte Enrichment Kit without CD16 depletion containing monoclonal antibodies against CD2, CD3, CD19, CD20, CD56, CD66b, CD123 and CD235a.
Tumor cells were resuspended in PBS with 0.1% fetal bovine serum (FBS) at 1 to 10×10^6 cells/mL. Cells were subsequently incubated with 2 μM CFSE to yield a final concentration of 1 μM. The reaction was ended after 2 minutes via the addition of 10 mL complete medium with 10% FBS and washed once with complete medium. Cells were either fixed in 2% paraformaldehyde and washed three times with PBS or left unfixed prior to freezing the cells in 10% DMSO, 20% FBS and 70% medium.
(§2) 2×10^5 APCs were incubated with or without 6.5×10^5 autologous or allogeneic CFSE-labeled tumor cells in 96-well plates (Corning) containing IMDM medium (Gibco) supplemented with 10% fetal bovine serum, 100 U/mL penicillin, 100 μg/mL streptomycin, 2 mM L-glutamine, sodium pyruvate, non-essential amino acids, 50 μM 2-ME and, where indicated, various concentrations of anti-tumor antibody and the indicated adjuvants. Cells and cell-free supernatants were analyzed after 18 hours via flow cytometry.
as §1, with “[…]” for “CD2, CD3, CD8, CD19, CD56, CD66b”, “[…].” for “CD235a.”, “CD14, CD16, CD40, CD86, CD123,” for “CD2, CD3, CD19, CD20, CD56, CD66b, CD123”
as §2, with “antibody.” for “anti-tumor antibody and the indicated adjuvants.”
(§3) 2×10^5 APCs were incubated with or without 6.5×10^5 allogeneic CFSE-labeled tumor cells in 96-well plates (Corning) containing IMDM medium (Gibco) supplemented with 10% fetal bovine serum, 100 U/mL penicillin, 100 μg/mL streptomycin, 2 mM L-glutamine, sodium pyruvate, non-essential amino acids and, where indicated, various concentrations of unconjugated CD20 antibody, and immunoconjugates of the invention were prepared according to the examples above. Cells and cell-free supernatants were analyzed after 18 hours via flow cytometry or ELISA.

[2] = test system: human APCs (myeloid cells); experiment: Cytokine secretion from human APCs / myeloid cells (cell free supernatants); format: cell-based
Experimental: Human APCs were stimulated with 2-fold serial dilutions of Rituximab-SATA-SMCC-Compound 1 (conjugated), Rituximab alone (Ab), Compound 1 alone or Rituximab+Compound 1 (Mixture) in the presence of fixed, CFSE-labeled tumor cells. After 18 hours, cell free supernatants were analyzed for cytokine secretion via cytokine bead arrays; n=3. P-values≤0.05 depicted by *, P-values≤0.01 depicted by **, P-values≤0.001 depicted by ***, P-values≤0.0001 depicted by ****.
as §2, with “Cells and cell-free supernatants were analyzed after 18 hours via flow cytometry.” left out
While the expression of T cell stimulatory molecules such as CD40, CD86 and HLA-DR is necessary for effective T cell activation, APCs also influence the nature of the ensuing immune response through the secretion of cytokines. Therefore, the capacity of immunoconjugates to elicit cytokine secretion in human APCs following stimulation was investigated as described above.
The capacity of these immunoconjugates to elicit cytokine secretion in human APCs following stimulation was investigated as described in Example 3 above.
as §3, with “Cells and cell-free supernatants were analyzed after 18 hours via flow cytometry or ELISA.” left out

[3] = 18 hours of stimulation, compared to equimolar unconjugated antibody unless the value names another comparator
[4] = 36 hours of stimulation, compared to equimolar unconjugated antibody

Cetuximab Boltbody
superior: CD14 downregulation on myeloid cells [1] | CD16 downregulation on myeloid cells [1] | CD40 upregulation on myeloid cells [1] | CD86 upregulation on myeloid cells [1] | CD123 upregulation on myeloid cells [1] | HLA-DR upregulation (expression) on myeloid cells [1] | IL-1β secretion from myeloid cells [2, 3] | TNFα secretion from myeloid cells [2, 3]

Trastuzumab Boltbody
superior: CD14 downregulation on myeloid cells [1] | CD16 downregulation on myeloid cells [1] | CD40 upregulation on myeloid cells [1] | CD86 upregulation on myeloid cells [1] | CD123 upregulation on myeloid cells [1] | HLA-DR upregulation (expression) on myeloid cells [1] | IL-1β secretion from myeloid cells [2, 4] | TNFα secretion from myeloid cells [2, 4]
